Laboratory results taken from PMC4956399.

Amino acid sequences for entries named in this document (tags omitted). A change or cut given only in a name is not applied to a line headed by its entry.
UniProt Q9UK80: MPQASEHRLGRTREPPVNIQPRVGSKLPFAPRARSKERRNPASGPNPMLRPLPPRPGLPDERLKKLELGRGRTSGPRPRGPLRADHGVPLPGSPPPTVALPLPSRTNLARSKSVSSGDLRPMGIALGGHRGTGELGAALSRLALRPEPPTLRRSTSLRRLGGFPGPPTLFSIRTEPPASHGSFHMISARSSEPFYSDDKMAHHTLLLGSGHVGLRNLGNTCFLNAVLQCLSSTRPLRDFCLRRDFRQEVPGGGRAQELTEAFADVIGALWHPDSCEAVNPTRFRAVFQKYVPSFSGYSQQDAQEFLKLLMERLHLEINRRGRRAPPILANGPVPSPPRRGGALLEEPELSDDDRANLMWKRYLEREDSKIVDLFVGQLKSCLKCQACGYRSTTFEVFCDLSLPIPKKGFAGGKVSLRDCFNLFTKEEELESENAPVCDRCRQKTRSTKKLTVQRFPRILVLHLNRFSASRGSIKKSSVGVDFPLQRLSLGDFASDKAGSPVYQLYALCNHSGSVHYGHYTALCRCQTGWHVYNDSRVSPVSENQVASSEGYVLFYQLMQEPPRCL

Molecular target: ubiquitin specific peptidase 21 (USP21) (human) (UniProt Q9UK80)

Substance “wild-type human ubiquitin (from UniProt P0CG47 1-76) (natural protein)” has an IC50 of inhibition of USP21 activity (Ub-AMC hydrolysis) of 18 µM.
